Measured values from paper PMC10823479 (Journal of Medicinal Chemistry, 2024).

Amino acid sequences for entries named in this document (tags omitted). A change or cut given only in a name is not applied to a line headed by its entry.
UniProt Q9Y5N1: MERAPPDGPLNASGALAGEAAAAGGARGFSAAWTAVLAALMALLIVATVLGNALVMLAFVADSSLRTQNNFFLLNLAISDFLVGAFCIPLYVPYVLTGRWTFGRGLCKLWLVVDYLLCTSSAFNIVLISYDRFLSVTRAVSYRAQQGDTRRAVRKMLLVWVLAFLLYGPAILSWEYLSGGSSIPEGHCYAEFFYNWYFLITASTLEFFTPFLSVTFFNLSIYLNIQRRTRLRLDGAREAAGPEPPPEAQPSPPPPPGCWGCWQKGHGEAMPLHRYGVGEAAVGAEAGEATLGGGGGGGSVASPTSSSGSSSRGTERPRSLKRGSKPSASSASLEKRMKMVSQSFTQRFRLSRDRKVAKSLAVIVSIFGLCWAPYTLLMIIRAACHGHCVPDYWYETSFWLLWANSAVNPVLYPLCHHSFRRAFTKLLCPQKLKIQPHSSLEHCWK

Molecular target: human histamine H3 receptor (Homo sapiens, UniProt Q9Y5N1)
Conditions: read-out: % of control specific binding, H3; 1 µM

Which inhibition does the source give for (R)-(−)-α-Methylhistamine here?
The inhibition was 99%.
